Yeast mating assay B: variants of the scFv Ab-14

Values reported by Li et al. 2023, doi:10.1038/s41467-023-39022-2 (FLAb copy).

Target: peptide PDVDLGDISGINAS, taken from heptad repeat 2 (HR2) of SARS-CoV-2 spike.

Ab-14 is the parent antibody, in scFv form: VH, then the linker GGGGSGGGGSGGGGS, then VL. The heavy chain is unchanged in all variants.
VH: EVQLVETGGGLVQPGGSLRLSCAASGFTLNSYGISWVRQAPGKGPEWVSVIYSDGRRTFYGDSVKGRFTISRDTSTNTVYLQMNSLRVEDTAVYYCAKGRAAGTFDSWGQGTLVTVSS
VL: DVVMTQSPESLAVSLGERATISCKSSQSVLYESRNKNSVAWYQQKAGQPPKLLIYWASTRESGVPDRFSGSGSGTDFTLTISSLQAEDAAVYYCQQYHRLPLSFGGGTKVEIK

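Phage display of a naive human antibody library on the peptide gave the parent. This is the validation round: designs drawn from the data on random variants, tested in the same kind of assay. Several design methods are mixed in this list. Affinity was read by AlphaSeq, a pooled yeast mating assay with surface-displayed partners. Binding brings cells together so that they mate, and sequencing counts the barcode pairs among the diploids. The ratio of observed to expected reads was calibrated, replicate by replicate, on BCL2-family standards whose Kd was known from biolayer interferometry. Each pool was mated in six replicate cultures.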

The whole VL of each variant is written out. This list holds designs with more than six substitutions. Values are log10 of the apparent Kd in nM; lower means stronger binding. An entry "nd" has no value in the source: the pair was not observed among the diploids in that replicate. This suggests poor binding but is not conclusive. A sequence measured in both rounds can read differently, since the two assays cover different ranges. Nonspecific signal, from three strains lacking the peptide, appeared in 4% of pairings of all light chain designs, centred on 2.64 (5% of these signals below 1.59); values are not corrected for it. For each scFv, signals with the empty controls are counted beside the result. The authors' rule: three or more of the six replicates give a measured affinity, fewer mean a poor binder. Of ten entries with the parent sequence, four were seen in most replicates (averages 0.34 to 2.37), three in one and three in none, so single entries are noisy.

The variant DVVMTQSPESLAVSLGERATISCKITGMWTFESHERNNIAWYQQKAGQPPKLLIYEESTREDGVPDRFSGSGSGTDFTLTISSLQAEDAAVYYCQSYHRLPLSFGGGTKVEIK showed nd, 1.30, nd, 0.82, 1.96, nd (controls 0 of 18). For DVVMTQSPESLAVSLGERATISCHMSMLTLGGMRQRNSVAWYQQKAGQPPKLLIYQMTTRENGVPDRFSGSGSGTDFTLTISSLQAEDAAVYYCQQYDHLPLSFGGGTKVEIK, the assay gave 1.40, 0.65, 0.78, -0.39, 1.05, 1.80 (controls 1 of 18). The variant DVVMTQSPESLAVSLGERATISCHLSDFLSYGKDLQAAVAWYQQKAGQPPKLLIYGVQTRMTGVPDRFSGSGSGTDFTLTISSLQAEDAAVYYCQQYARLPLFFGGGTKVEIK showed 0.21, 0.05, -0.16, -0.22, -0.04, 0.10 (controls 0 of 18). The variant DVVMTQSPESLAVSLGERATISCKLSLGLGVSKQVEKNIAWYQQKAGQPPKLLIYNERLKIAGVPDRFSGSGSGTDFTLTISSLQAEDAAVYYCQQYDRLPLTFGGGTKVEIK showed 0.97, 1.04, 0.48, 0.56, 0.60, 0.82 (controls 1 of 18). The variant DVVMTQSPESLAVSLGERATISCKFQIGFNQGSSMEHNIAWYQQKAGQPPKLLIYEGTYAEEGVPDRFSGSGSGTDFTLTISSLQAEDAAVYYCQQYARLPLQFGGGTKVEIK showed 1.63, 0.76, 1.03, 2.37, 0.93, 1.58 (controls 0 of 18). With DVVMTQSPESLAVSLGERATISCQIYQAGHTLMQAINNVAWYQQKAGQPPKLLIYDVTNRSNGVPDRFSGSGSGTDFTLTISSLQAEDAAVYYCQQYNRLPLSFGGGTKVEIK the result was 0.54, 0.22, 0.31, -0.18, 0.48, 0.19 (controls 0 of 18). The variant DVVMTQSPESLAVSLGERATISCHLELEEMQMMKDHNSIAWYQQKAGQPPKLLIYDTEHKTRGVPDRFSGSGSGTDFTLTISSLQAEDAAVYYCQQYFRLPISFGGGTKVEIK gave 0.82, 0.70, 0.25, 0.25, 0.31, 0.58 (controls 2 of 18). For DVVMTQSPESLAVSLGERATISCIVSQSVLGESRNKNSVAWYQQKAGQPPKLLIYQTSEREYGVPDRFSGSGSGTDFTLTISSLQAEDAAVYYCQQYDRLPLSFGGGTKVEIK, the assay gave 0.61, 0.94, 0.60, 0.27, 0.90, 0.67 (controls 0 of 18).

The variant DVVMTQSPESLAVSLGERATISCKLYQSVGTMSHNKQSIAWYQQKAGQPPKLLIYDMERREDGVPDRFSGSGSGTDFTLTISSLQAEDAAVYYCQQYHRLPLSFGGGTKVEIK showed 0.16, -0.39, 0.14, 0.10, -0.06, 0.11 (controls 2 of 18). For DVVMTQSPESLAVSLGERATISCKLSATYRYESNNKNNIAWYQQKAGQPPKLLIYEMTTRESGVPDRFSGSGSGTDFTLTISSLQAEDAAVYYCQCYHRLPLSFGGGTKVEIK, the assay gave 1.36, 1.04, 1.02, 1.14, 1.10, 1.09 (controls 2 of 18). The variant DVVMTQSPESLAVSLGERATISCMVSQLMVWGLHAKNSIAWYQQKAGQPPKLLIYEAQTRINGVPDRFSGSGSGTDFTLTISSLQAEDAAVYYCQQYDRLPLFFGGGTKVEIK gave 1.49, 2.07, 1.34, 1.86, 2.34, 1.82 (controls 0 of 18). The variant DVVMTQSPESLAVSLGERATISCKISMLINQTFEQSNNVAWYQQKAGQPPKLLIYEMVTRMNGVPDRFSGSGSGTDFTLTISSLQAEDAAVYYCQQYHRLPLSFGGGTKVEIK gave 0.64, 1.05, 0.80, 0.93, 0.69, 0.98 (controls 0 of 18). For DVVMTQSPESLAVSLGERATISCKLASRQYQFGANHQNIAWYQQKAGQPPKLLIYDATSSMNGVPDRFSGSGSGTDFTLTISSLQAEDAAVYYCQQYMHLPFTFGGGTKVEIK, the assay gave -0.30, -0.32, -0.05, -0.54, 0.00, 0.02 (controls 1 of 18). With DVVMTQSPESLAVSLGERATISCNLQNIGSELSVWKRAIAWYQQKAGQPPKLLIYDANIRESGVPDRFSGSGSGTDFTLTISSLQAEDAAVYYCQQYFRLPLLFGGGTKVEIK the result was 0.11, 0.06, -0.09, -0.10, -0.02, 0.17 (controls 2 of 18). With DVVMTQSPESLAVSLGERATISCKLQQSMLYESRWQNSVAWYQQKAGQPPKLLIYQASQREVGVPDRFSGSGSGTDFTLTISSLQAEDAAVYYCQQYHRLPLSFGGGTKVEIK the result was 0.19, -0.04, -0.10, -0.10, 0.08, -0.05 (controls 2 of 18). For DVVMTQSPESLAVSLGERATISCVLAMESYQKYRHENNIAWYQQKAGQPPKLLIYEANMRAQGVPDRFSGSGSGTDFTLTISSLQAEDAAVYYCQQYNRLPFQFGGGTKVEIK, the assay gave 0.15, -0.13, -0.10, -0.12, -0.10, 0.09 (controls 1 of 18).

The variant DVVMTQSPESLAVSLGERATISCKLQFSALQLQRNKNSVAWYQQKAGQPPKLLIYSASTRESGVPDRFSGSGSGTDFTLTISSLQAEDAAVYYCQQYHRLPLSFGGGTKVEIK gave 0.11, 0.26, -0.28, -0.02, 0.00, 0.00 (controls 2 of 18). For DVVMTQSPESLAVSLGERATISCKISQMIRVGSTHSNSIAWYQQKAGQPPKLLIYEEATRAKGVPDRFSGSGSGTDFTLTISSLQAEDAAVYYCQQYHRLPLFFGGGTKVEIK, the assay gave 0.68, 0.99, 0.40, 0.51, 0.66, 0.77 (controls 2 of 18). For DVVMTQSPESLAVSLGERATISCHVSESVFMQSKMRNSVAWYQQKAGQPPKLLIYENSTRESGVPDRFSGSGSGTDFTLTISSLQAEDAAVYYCQQYDRLPLSFGGGTKVEIK, the assay gave 1.32, 1.90, 1.71, 1.25, 1.50, 1.76 (controls 0 of 18). For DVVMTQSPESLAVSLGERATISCKQSQLVGMESRNMNSVAWYQQKAGQPPKLLIYNASTREEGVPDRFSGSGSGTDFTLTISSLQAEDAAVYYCQQYHRLPLSFGGGTKVEIK, the assay gave 0.98, 0.42, 0.52, 0.23, 0.54, 0.77 (controls 2 of 18). For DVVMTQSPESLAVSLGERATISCKLWMSPLEGQSELQAVAWYQQKAGQPPKLLIYQAEVLRQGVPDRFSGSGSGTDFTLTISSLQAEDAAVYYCQQYNMLPLSFGGGTKVEIK, the assay gave 2.09, 0.92, nd, -0.08, 2.20, nd (controls 1 of 18). With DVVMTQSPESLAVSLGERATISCRLSNHVYDRQGIQHSVAWYQQKAGQPPKLLIYQDAERAVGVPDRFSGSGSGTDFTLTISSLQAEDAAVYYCQSYDRLPLSFGGGTKVEIK the result was 1.63, 1.65, 1.91, 1.90, 2.01, 2.02 (controls 1 of 18).

Top 2 of the variants detected in all replicates, tightest first:

VL,"log10 Kd, replicates",signal with controls
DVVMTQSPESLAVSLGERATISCKLASRQYQFGANHQNIAWYQQKAGQPPKLLIYDATSSMNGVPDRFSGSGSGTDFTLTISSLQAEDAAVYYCQQYMHLPFTFGGGTKVEIK,"-0.30, -0.32, -0.05, -0.54, 0.00, 0.02",1 of 18
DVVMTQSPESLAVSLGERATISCVLAMESYQKYRHENNIAWYQQKAGQPPKLLIYEANMRAQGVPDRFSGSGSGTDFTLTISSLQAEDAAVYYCQQYNRLPFQFGGGTKVEIK,"0.15, -0.13, -0.10, -0.12, -0.10, 0.09",1 of 18